We go through one substance from PMC12920379 (European Journal of Nuclear Medicine and Molecular Imaging, 2025).

The test system of one data set is T47D xenografts. The settings on record: T47D-mice. How it is done:
Male athymic Balb/C nude mice (age: 6 weeks, weight: 16–20 g) were implanted with prostate PC3 cells (3 × 10^6/100 µL PBS) into their right shoulder. Female athymic Balb/C nude mice (age: 6 weeks, weight: 16–20 g) were implanted with breast T47D cells (12 × 10^6 in 100 µL of PBS: Matrigel, 1:1) into their right shoulder. For the development of the breast tumor models, mice were also implanted with home-made silicon-based hormone pellets (1 mg estrogen/pellet) one week before the implantation of the breast cancer cells. The animals were used for biodistribution and SPECT/CT imaging studies, once tumors reached 250–300 mm³.
Selected organs were dissected and weighed, and the radioactivity in the tissue samples was counted in a γ-counter. Biodistribution data are given as per cent of injected activity per gram of tissue (% I.A./g) and expressed as mean values ± SD (n = 3–4).
Blood samples were collected at multiple time points (1–240 min p.i.) and measured using a γ-counter. Blood half-lives were determined with GraphPad Prism using a Two-Phase Decay Model, while tumor, pancreas, and kidney half-lives were calculated from biodistribution data using a One-Phase Decay Model (supplementary data).
The areas under the time-activity curves (AUC) in the tumor, blood, pancreas and kidneys were calculated from the non-corrected biodistribution data using GraphPad Prism.

Data set [1] in a line: In vivo plasma protein binding in healthy mice. Conditions: 5 min p.i. How it is done: Blood was immediately transferred to pre-chilled heparinized tubes and centrifuged (5 min, 1700 g, 4 °C) for plasma isolation. The isolated plasma was then transferred into a 2 mL Eppendorf and a double volume of a 1:1 (v/v) ACN:MeOH solution was added to induce the precipitation of the plasma proteins. The proteins were separated by centrifugation (10 min, 9660 g, 4 °C). After careful separation of the two phases (precipitated proteins and supernatant), the respective activities were measured in a γ-counter to determine the percentage of the radiotracer bound to the plasma proteins.

For “[^47Sc]Sc-LF1: scandium-47 labeled statine-based GRPR antagonist LF1 (AAZTA^5-Pip-D-Phe-Gln-Trp-Ala-Val-Gly-His-Sta-Leu-NH2) (FQWAVGH; 47Sc-AAZTA5-Pip; Sta-Leu-NH2 C-terminus; printed: Phe-Gln-Trp-Ala-Val-Gly-His-)”, in the data set on T47D xenografts (4 h p.i.), the Kidneys uptake is given as 2.1 ± 0.3 % I.A./g. Also, the “Effective half-life in tumor” value in the data set with T47D xenografts (one-phase decay model) is listed as 3.2 h. Further, in data set [1], the Plasma protein binding was 3.2%.
